{"sequences": {"note": "By UniProt entry, the sequences of proteins in these tests, tags left out.", "UniProt Q9NP58, whole entry": "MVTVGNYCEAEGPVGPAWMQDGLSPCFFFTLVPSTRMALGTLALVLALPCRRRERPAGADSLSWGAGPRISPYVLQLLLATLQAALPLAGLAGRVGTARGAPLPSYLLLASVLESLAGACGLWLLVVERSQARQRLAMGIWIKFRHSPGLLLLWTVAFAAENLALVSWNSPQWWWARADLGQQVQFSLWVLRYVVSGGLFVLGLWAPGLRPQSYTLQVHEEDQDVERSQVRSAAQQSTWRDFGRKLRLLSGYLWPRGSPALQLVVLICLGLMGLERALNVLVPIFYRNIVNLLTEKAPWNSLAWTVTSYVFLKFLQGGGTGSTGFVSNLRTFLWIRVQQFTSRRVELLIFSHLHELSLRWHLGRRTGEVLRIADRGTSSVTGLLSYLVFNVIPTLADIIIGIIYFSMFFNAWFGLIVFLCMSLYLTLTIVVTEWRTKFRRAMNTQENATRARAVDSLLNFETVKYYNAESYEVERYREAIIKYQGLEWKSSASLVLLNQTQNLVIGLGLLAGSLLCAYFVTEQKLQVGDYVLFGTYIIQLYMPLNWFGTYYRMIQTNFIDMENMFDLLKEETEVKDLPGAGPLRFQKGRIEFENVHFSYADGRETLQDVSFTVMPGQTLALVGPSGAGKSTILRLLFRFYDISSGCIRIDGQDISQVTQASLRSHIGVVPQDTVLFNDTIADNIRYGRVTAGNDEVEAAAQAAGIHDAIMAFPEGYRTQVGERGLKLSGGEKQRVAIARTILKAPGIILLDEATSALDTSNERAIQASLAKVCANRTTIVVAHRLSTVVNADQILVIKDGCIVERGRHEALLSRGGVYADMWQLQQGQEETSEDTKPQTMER"}, "source": "PubChem BioAssay AID602162", "about": "(NMMLSC, 2011)", "note": "The list shows a part of the results, in another mix than the full data. Some tests of the compounds listed are not included; inactive here does not mean inactive elsewhere. Calls of active or inactive are those of the source.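 Rule for the calls: active = fluorescence ratio to DMSO below 75%, the collection mean minus 3 SD; inconclusive = too few cells collected in the well; inactive = the rest.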"}
{"target": "ATP-binding cassette sub-family B member 6 (Homo sapiens) (UniProt Q9NP58)", "experiment": "ABCB6 transporter inhibitors, primary screen, K562-ABCB6 cells, flow cytometry, MLPCN library (AID 602162);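 note: signal is porphyrin accumulated inside mitochondria; 100% equals median channel fluorescence of DMSO control wells; lower ratio means ABCB6 inhibition with less porphyrin fluorescence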", "settings": "K562-ABCB6 porphyrin accumulation, 1 h, at 10 µM, active compounds read low"}
{"smiles": "COc1ccc(Cl)cc1C(=O)NCC1(N(C)C)CCCCC1", "fluorescence ratio to DMSO": "inactive: 102%"}
{"smiles": "COc1cccc(C(=O)NCC2(N3CCCCC3)CCCCC2)c1", "fluorescence ratio to DMSO": "inactive: 95%"}
{"smiles": "O=C(NCC1(N2CCCCC2)CCCCC1)c1cccc(Cl)c1", "fluorescence ratio to DMSO": "inactive: 98%"}
{"smiles": "CN(C)C1(CNC(=O)c2ccc(Br)cc2)CCCCC1", "fluorescence ratio to DMSO": "inactive: 100%"}
{"smiles": "COc1cc(C(=O)NCC2(N(C)C)CCCCC2)c([N+](=O)[O-])cc1OC", "fluorescence ratio to DMSO": "inactive: 96%"}
{"smiles": "C=C(C)C#CC(O)(C(=O)OC1CCN(C)CC1)c1ccccc1", "note": "(stereo unspecified)", "fluorescence ratio to DMSO": "inactive: 104%"}
{"smiles": "COc1ccc(Br)c(C(=O)NCC2(N3CCCCC3)CCCCC2)c1", "fluorescence ratio to DMSO": "inactive: 99%"}
{"smiles": "O=C(OCCN1CCCC1)C(O)(c1ccccc1)c1ccccc1", "fluorescence ratio to DMSO": "inactive: 97%"}
{"smiles": "CC(C)Oc1ccc(C(=O)NCC2(N(C)C)CCCCC2)cc1", "fluorescence ratio to DMSO": "inactive: 98%"}
{"smiles": "CN(C)c1cccc(C(=O)NCC2(N(C)C)CCCCC2)c1", "fluorescence ratio to DMSO": "inactive: 92%"}
{"smiles": "O=C(OC1CN2CCC1CC2)C(CO)(c1ccccc1)c1ccccc1", "note": "(stereo unspecified)", "fluorescence ratio to DMSO": "inactive: 109%"}
{"smiles": "COc1cc(SC)ccc1C(=O)NCC1(N(C)C)CCCCC1", "fluorescence ratio to DMSO": "inactive: 95%"}
{"smiles": "CCN(CC)CC(C)C(C)OC(=O)C(O)(c1ccccc1)c1ccccc1", "note": "(stereo unspecified)", "fluorescence ratio to DMSO": "inactive: 102%"}
{"smiles": "CC(C)N1C(=O)CC2(CCN(CCOC(=O)C(O)(c3ccccc3)c3ccccc3)CC2)C1=O", "fluorescence ratio to DMSO": "inactive: 96%"}
{"smiles": "Cc1ccc(C(=O)NCC2(N3CCCCC3)CCCCC2)cc1", "fluorescence ratio to DMSO": "inactive: 99%"}
{"smiles": "O=C(NCC1(N2CCCCC2)CCCCC1)c1cc([N+](=O)[O-])ccc1Cl", "fluorescence ratio to DMSO": "inactive: 99%"}
{"smiles": "CN1[C@@H]2CC[C@H]1CC(OC(=O)C(O)(c1ccccc1)c1ccccc1)C2", "note": "(stereo partly specified)", "fluorescence ratio to DMSO": "inactive: 98%"}
{"smiles": "O=C(NCC1(N2CCCCC2)CCCCC1)c1cc(F)c(F)cc1Cl", "fluorescence ratio to DMSO": "inactive: 97%"}
{"smiles": "C=CCN1CCN(CCOC(=O)C(O)(c2ccccc2)c2ccccc2)CC1", "fluorescence ratio to DMSO": "inactive: 97%"}
{"smiles": "COc1ccc(C(=O)NCC2(N(C)C)CCCCC2)cc1", "fluorescence ratio to DMSO": "inactive: 101%"}
{"smiles": "O=C(NCC1(N2CCCCC2)CCCCC1)c1cccc(Br)c1", "fluorescence ratio to DMSO": "inactive: 93%"}
{"smiles": "Cc1cc(C(=O)NCC2(N3CCCCC3)CCCCC2)ccc1[N+](=O)[O-]", "fluorescence ratio to DMSO": "inactive: 90%"}
{"smiles": "CCN1CCCC(OC(=O)C2(O)c3ccccc3C=Cc3ccccc32)C1", "note": "(stereo unspecified)", "fluorescence ratio to DMSO": "inactive: 100%"}
{"smiles": "CN(C)C1CCCC1OC(=O)C(O)(c1ccccc1)c1ccccc1", "note": "(stereo unspecified)", "fluorescence ratio to DMSO": "inactive: 95%"}
{"smiles": "CN(C)c1ccc(C(=O)NCC2(N(C)C)CCCCC2)cc1", "fluorescence ratio to DMSO": "inactive: 101%"}
{"smiles": "Cc1ccccc1C(=O)NCC1(N2CCCCC2)CCCCC1", "fluorescence ratio to DMSO": "inactive: 100%"}
